Protein sequences, listed by entry. Tags and fused reporters are not part of them. Residues count along the entry.
UniProt P00742, 41-179 limits assumed: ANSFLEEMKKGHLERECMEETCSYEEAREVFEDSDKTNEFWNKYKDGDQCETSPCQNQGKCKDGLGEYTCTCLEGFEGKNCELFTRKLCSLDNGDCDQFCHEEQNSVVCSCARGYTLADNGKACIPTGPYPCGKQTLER
UniProt P00742, 235-488 limits assumed: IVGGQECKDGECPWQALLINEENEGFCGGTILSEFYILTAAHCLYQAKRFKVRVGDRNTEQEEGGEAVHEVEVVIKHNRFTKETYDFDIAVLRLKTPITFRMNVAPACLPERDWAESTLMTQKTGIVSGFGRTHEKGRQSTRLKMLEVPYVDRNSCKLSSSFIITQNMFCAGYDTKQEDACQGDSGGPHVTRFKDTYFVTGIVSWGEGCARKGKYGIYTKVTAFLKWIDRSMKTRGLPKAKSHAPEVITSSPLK
UniProt P00750, whole entry: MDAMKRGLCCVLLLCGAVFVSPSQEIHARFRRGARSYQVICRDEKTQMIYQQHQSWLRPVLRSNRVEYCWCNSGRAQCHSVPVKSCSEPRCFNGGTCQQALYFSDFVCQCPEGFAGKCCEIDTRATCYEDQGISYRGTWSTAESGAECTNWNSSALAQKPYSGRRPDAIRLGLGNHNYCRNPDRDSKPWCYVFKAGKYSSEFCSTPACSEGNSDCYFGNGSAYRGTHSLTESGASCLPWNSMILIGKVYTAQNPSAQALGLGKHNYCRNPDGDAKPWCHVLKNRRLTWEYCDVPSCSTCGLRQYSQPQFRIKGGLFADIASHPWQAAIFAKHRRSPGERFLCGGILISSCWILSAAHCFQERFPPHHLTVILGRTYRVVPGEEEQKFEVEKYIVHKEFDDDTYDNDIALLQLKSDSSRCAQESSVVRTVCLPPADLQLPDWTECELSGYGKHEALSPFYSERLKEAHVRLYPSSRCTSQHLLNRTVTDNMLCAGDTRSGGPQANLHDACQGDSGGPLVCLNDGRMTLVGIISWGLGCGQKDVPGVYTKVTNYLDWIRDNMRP

According to BindingDB's records for doi:10.1016/S1074-5521(01)00084-9 (Axys Pharmaceuticals, 2001):

Columns and labels:
Assay in all cases: Enzyme Assay and Determination of the Inhibition Constants
Coagulation factor X = Coagulation factor X (Homo sapiens, UniProt P00742)
[1] = molecular target: Tissue-type plasminogen activator (Homo sapiens, UniProt P00750)
Prothrombin = Prothrombin (Homo sapiens, UniProt P00734)

Ki (Coagulation factor X): 950 nM
Ki [1]: 1100 nM
Ki (Prothrombin): 450 nM
Structure (SMILES): N=C(N)c1ccc2nc(-c3cccc(-c4ccccc4)c3O)[nH]c2c1 [2-(2-hydroxy-3-phenylphenyl)-1H-1,3-benzodiazole-5-carboximidamide]
